# Test results from patent publication US20230091848A1, “DISEASE DETECTION AND TREATMENT BASED ON PHENYLACETYL GLUTAMINE LEVELS” (The Cleveland Clinic Foundation, priority 2020, published 2023).
# Tested on: washed human platelets
# Assay: cAMP assay in washed human platelets
# Type: cell-based
# Experimental: Real-time (RT) PCR in MEG01 cells: Total RNA was isolated from MEG01 cells following TRIZOL RNA isolation protocol post 40 h of siRNA transfection. […] Real time (RT) PCR was carried out following TaqMan Gene Expression Assays protocol using RT primers and probes of ADRA2A (assay Id Hs01099503_s1), ADRA2B (assay Id Hs00265081 s1) and ADRB2 (assay Id Hs00240532_s1) from ThermoFisher Scientific. cAMP assay in MEG01, Platelets and HEK293 cells: Intracellular cAMP levels were measured using CatchPoint Cyclic-AMP Fluorescent Assay Kit from molecular devices (Cat. R8089). […] For the quantification of cAMP, the lysed sample (40 μL), buffer control and cAMP calibrators were added in appropriate wells of a 96-well clear bottom, black wall cAMP assay plates (provided in the kit). […] The plate was covered with aluminum foil and left at room temperature for at least 10 min before reading fluorescence intensity in a FlexStation 3 Multi-Mode Microplate Reader-Molecular devices. […] Intracellular Ca^2+ measurement: Intracellular Ca^2+ in MEG01, HEL92.1.7, parental HEK293, β2-HEK293 (stable) cells, empty vector (EV) transfected HEK293 cells, ADRA2A transfected HEK293 cells and in α2B-HEK293 stable cells was measured using FLIPR Calcium 5 Assay Kit-Molecular devices (Cat. R8186). […]
structure (smiles),measurement,value
CC(C)NCC(O)COc1cccc2ccccc12 (centres unmarked) [propranolol],PAGln induced intracellular cAMP production after ADR inhibitors,inhibited PAGln (5 min exposure) induced intracellular cAMP production
same,"intracellular cAMP production after ISO treatment, with ADR inhibitors",reduced
